According to patent US20040023978A1, “Active salt forms with tyrosine kinase activity” (priority 2002, published 2004):

Columns and labels:
[1] = Hygroscopicity, step isotherm at 25° C.; assay type: physicochemical
[2] = Solubility at room temperature (HPLC isocratic method); assay type: physicochemical
[3] = Stability of the crystal form (XRPD, hot-stage XRPD)

## CNC(=O)N1CCN(Cc2ccnc(Nc3ncc(C#N)s3)c2)CC1.CS(=O)(=O)O [mesylate salt (Form A), 1-({2-[(5-cyano-1,3-thiazol-2-yl)amino]pyridin-4-yl}methyl)-4-[(methylamino)carbonyl]piperazin-1-ium methanesulfonate]
[1]
  hygroscopicity: slightly hygroscopic
[1]; 80%RH
  moisture pick-up: about 4%
[2]; value after 7 days
  Native pH in water: ^2Native pH in water is 2.54 (value after 7 days).
[2]; water (text b274)
  pH of the resulting aqueous solution: 1.8
[3]; 100° C.
  crystal form on heating (hot-stage XRPD): retained the initial form
[3]; 175° C.
  crystal form on heating (hot-stage XRPD): changed to a different form (Form B)
[3]; suspended in water for 3 weeks
  initial crystal form on suspension in water: retained
